Source: ChEMBL document CHEMBL5390260, “4-(3-Phenyl-4-(3,4,5-trimethoxybenzoyl)-1H-pyrrol-1-yl)benzenesulfonamide, a Novel Carbonic Anhydrase and Wnt/β-Catenin Signaling Pathway Dual-Targeting Inhibitor with Potent Activity against Multidrug Resistant Cancer Cells” (J Med Chem, 2023)
pKi: −log10 of the molar value.

By UniProt entry, the sequences of proteins in these tests, tags left out. Where a name states a change or a piece, a line headed by the entry shows the natural chain unless it says otherwise.
UniProt P00915: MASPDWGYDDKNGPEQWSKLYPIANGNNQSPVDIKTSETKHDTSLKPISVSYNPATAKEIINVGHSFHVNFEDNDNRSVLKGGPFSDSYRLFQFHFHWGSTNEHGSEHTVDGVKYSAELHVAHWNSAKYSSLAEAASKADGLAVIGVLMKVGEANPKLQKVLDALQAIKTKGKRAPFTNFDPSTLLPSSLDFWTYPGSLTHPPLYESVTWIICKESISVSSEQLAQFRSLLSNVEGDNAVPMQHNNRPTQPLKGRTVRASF

How the values were obtained:
[1] = target: Carbonic anhydrase 2 (Homo sapiens, UniProt P00918); test: Binding affinity to human recombinant CA2 assessed as inhibition constant incubated for 15 mins by phenol red dye based stopped flow CO2 hydration assay
[2] = target: Carbonic anhydrase 1 (Homo sapiens, UniProt P00915); test: Binding affinity to human recombinant CA1 assessed as inhibition constant incubated for 15 mins by phenol red dye based stopped flow CO2 hydration assay

SMILES	pKi [1]	pKi [2]
NS(=O)(=O)c1ccc(-n2ccc(C(=O)c3ccccc3)c2)cc1	7.24	7.14
NS(=O)(=O)c1ccc(-n2cc(C(=O)c3ccccc3)c(-c3ccccc3)c2)cc1	7.14	6.68
NS(=O)(=O)c1ccc(-n2cc(C(=O)c3ccccc3)c3ccccc32)cc1	7.38	6.48
COc1cc(C(=O)c2ccn(-c3ccc(S(N)(=O)=O)cc3)c2)cc(OC)c1OC	–	7.02
